Here are results for 4 compounds from ChEMBL document CHEMBL1125895, “Naphtho and benzo analogues of the kappa opioid agonist trans-(+/-)-3,4-dichloro-N-methyl-N-[2-(1-pyrrolidinyl)cyclohexyl] benzeneacetamide” (1991).

Sequences of proteins named here, by UniProt entry; tags and fusion partners are left off.
UniProt P33534, whole entry: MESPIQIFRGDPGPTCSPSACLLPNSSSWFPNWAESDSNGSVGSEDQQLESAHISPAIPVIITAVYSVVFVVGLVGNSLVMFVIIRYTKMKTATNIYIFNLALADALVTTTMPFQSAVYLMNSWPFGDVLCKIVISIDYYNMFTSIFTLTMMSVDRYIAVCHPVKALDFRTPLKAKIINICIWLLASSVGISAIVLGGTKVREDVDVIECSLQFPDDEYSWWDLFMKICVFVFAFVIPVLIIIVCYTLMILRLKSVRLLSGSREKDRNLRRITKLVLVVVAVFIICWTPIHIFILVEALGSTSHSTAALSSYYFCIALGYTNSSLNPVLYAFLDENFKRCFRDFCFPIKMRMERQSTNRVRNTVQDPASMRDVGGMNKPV
UniProt P42866, whole entry: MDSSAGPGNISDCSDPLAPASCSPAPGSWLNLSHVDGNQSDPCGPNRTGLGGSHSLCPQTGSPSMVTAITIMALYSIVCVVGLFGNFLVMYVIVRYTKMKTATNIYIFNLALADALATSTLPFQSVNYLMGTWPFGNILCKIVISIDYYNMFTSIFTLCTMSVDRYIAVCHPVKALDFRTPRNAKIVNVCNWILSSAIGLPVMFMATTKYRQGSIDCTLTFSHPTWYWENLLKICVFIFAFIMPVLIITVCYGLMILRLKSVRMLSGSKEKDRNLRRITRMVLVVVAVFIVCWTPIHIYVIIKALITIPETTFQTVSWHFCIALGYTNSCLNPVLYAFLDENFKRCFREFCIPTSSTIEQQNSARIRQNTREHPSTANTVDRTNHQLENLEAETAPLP

Assay [1] concerns Mus musculus. The assay is described as follows: In vivo analgesic activity for chemical irritation modality using HCl writhing test in female CF-1 mice administered subcutaneously. On the technique in general: In writhing tests, fewer writhes than in controls are read as antinociception.
In assay [2] the target is Kappa-type opioid receptor (Mus musculus, UniProt P33534). The assay is described as follows: Binding affinity against opioid receptor kappa using [3H]U-69,593 as a radioligand.
For the next assay, the target named is Mu-type opioid receptor (Mus musculus, UniProt P42866). The assay is described as follows: Binding affinity against opioid receptor mu using [3H]etorphine as a radioligand.
The subject of assay [3] is Mus musculus. The assay is described as follows: In vivo analgesic activity for pressure stimulus modality using tail pinch test in female CF-1 mice administered subcutaneously.
For assay [4], the system named is Mus musculus. The assay is described as follows: In vivo analgesic activity for heat stimulus modality using tail flick test in female CF-1 mice administered subcutaneously. (In hot-plate and tail-flick tests a longer latency is read as antinociception.)

By ED50 is commonly meant the midpoint of the dose-response relation. The low end stands for an effect at a small dose, the high end for a need for a large dose. As a reminder, the IC50 is the midpoint of a concentration-inhibition curve. The term Ki denotes the equilibrium dissociation constant of an inhibitor or competing ligand from its target. Lower therefore signals higher affinity. As for `CN(C(=O)c1ccc(Cl)c(Cl)c1)[C@@H]1Cc2cc3ccccc3cc2C[C@H]1N1CCCC1`, the 50% effective dose (ED50) in the assay on Mus musculus [1] was 71 mg/kg; in the assay with Mus musculus [3], more than 100 mg/kg; in the assay with Mus musculus [4], more than 100 mg/kg. The IC50 in assay [2] was 84.9 nM. Further, on Mu-type opioid receptor, the Ki is more than 1000 nM.
Take `CN(C(=O)c1ccc(Cl)c(Cl)c1)[C@@H]1c2ccccc2CC[C@H]1N1CCCC1`: the ED50 in the assay on Mus musculus [1], in the assay with Mus musculus [3] and in the assay on Mus musculus [4] was more than 100 mg/kg each time. In assay [2], this compound showed an IC50 of 368 nM. At Mu-type opioid receptor, the Ki is more than 1000 nM.
In turn, `CN(C)[C@@H]1Cc2ccccc2C[C@H]1N(C)C(=O)c1ccc(Cl)c(Cl)c1` had an IC50 in assay [2] of 55.5 nM.
As to `CN(C)[C@@H]1CCc2ccccc2[C@H]1N(C)C(=O)c1ccc(Cl)c(Cl)c1`, the ED50 in the assay on Mus musculus [1], in the assay on Mus musculus [3] and in the assay on Mus musculus [4] was more than 100 mg/kg in each case. Also, the IC50 in assay [2] came out at 2200 nM. This compound displayed a Ki at Mu-type opioid receptor of 505 nM.
